By UniProt entry, the sequences of proteins in these tests, tags left out. Residues count along the entry.
UniProt P08684, 2-503: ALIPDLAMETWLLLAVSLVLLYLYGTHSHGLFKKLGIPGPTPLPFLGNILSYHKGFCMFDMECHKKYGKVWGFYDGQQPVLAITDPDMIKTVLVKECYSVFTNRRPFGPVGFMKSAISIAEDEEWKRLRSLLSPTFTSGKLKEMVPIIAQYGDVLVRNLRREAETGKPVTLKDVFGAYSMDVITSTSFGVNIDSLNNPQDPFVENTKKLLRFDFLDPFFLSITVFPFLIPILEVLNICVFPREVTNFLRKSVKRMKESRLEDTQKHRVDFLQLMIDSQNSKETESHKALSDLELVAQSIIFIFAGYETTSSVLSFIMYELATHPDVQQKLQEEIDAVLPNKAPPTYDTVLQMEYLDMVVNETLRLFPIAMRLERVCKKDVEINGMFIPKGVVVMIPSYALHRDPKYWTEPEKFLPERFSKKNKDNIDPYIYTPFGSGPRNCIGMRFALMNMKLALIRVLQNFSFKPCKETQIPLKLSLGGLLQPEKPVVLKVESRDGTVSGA

According to PMC6152024, “Time- and NADPH-Dependent Inhibition on CYP3A by Gomisin A and the Pharmacokinetic Interactions between Gomisin A and Cyclophosphamide in Rats” (Molecules : A Journal of Synthetic Chemistry and Natural …, 2017):

Tests used:
CYP3A [1] = target: T1, CYP3A (Homo sapiens, UniProt P08684); experiment: IC50 shift assay (time- and NADPH-dependent inhibition) in HLMs; assay type: in vitro ADME; conditions: 25 µM Tes
Procedure: (§1) A NADPH regenerating system (NADPH-gs, containing 10 mM glucose-6-phosphate, 5 mM magnesium chloride, 1 U/mL glucose-6-phosphate dehydrogenase and 1 mM NADP+) was constructed. The metabolite of Tes, 6OH-Tes, was assayed by UHPLC-MS method (I) for CYP3A activity assessment.
To identify time-dependent inhibition (TDI), the IC50 values of Gom A were determined using HLMs with and without a 30 minute preincubation step. In a final volume of 100 µL, Gom A at different concentrations (0, 0.08, 0.31, 0.63, 2.5, 10 and 40 µM) was preincubated with 10 × HLMs (5 mg/mL) at 37 °C with NADPH-gs in PBS (0.1 M). After 30 min, the incubation mixture was diluted 10 folds using PBS (0.1 M). Then 100 µL of the diluted mixture was added into a secondary incubation containing NADPH-gs and 25 µM Tes. The final volume was 200 µL. […]
(§2) Pharmacokinetic profiles of CTX and DCCTX were estimated by one-compartmental model using the DAS 2.0 software ([…], Medical College of Wannan, Anhui, China). Data were expressed as mean ± SD. […] IC50 values of Gom A were determined by nonlinear regression analysis using GraphPad Prism 5.01 software (GraphPad Software Inc., San Diego, CA, USA). The mode of inhibition was verified by Lineweaver-Burk plots of the enzyme kinetic data, and the KI value was determined by linear regression analysis with GraphPad Prism 5.01 (GraphPad Software Inc.). […]

CYP3A [2] = target: T1, CYP3A; experiment: KI and kinact assay (CYP3A inactivation) in HLMs; assay type: in vitro ADME; design: tissue Meilun Biotechnology Co., Ltd. (Dalian, China) lot No. M0202A; host or cells: pooled (mixed) male human liver microsomes; conditions: preincubation 0-30 min with NADPH-gs, 100 µM Tes, read-out: KI (time-dependent inhibition)
Procedure: The following steps were similar as described in the IC50 shift assays. The concentration of Tes was set as 100 µM (well beyond Km) to avoid reversible inhibition. All the incubations were performed in triplicate.
Pharmacokinetic profiles of CTX and DCCTX were estimated by one-compartmental model using the DAS 2.0 software ([…], Medical College of Wannan, Anhui, China). Data were expressed as mean ± SD. Comparisons between two groups were performed using one-way ANOVA followed by LSD test in the condition of variance homogeneity or Dunnett T3 test in the case of variance heterogeneity. The differences were considered to be statistically significant at * p < 0.05 and ** p < 0.01. IC50 values of Gom A were determined by nonlinear regression analysis using GraphPad Prism 5.01 software (GraphPad Software Inc., San Diego, CA, USA). The mode of inhibition was verified by Lineweaver-Burk plots of the enzyme kinetic data, and the KI value was determined by linear regression analysis with GraphPad Prism 5.01 (GraphPad Software Inc.). […]

CYP3A [3] = target: T1, CYP3A; experiment: Reversible CYP3A inhibition, testosterone 6β-hydroxylation in human liver microsomes; assay type: in vitro ADME; conditions: HLMs 0.5 mg/mL, Tes 6β-hydroxylation, Lineweaver-Burk secondary plot; read-out: KI (Ki), reversible competitive inhibition
Procedure: as §1
The CYP3A inhibition by Gom A was preliminarily evaluated. […] After a 5 min warm up period, reactions were initiated with addition of NADPH-gs. Incubations were conducted at 37 °C for 10 min and then terminated by the addition of 200 µL ice-cold acetonitrile containing 18 ng/mL phenacetin (IS-I). To determine the Ki value, Gom A (0.38, 0.75, 1.5, 3 µM) was added to the reaction mixture containing different concentrations of Tes (12.5, 18.75, 25, 37.5 and 50 µM) in the incubation systems. Incubations were processed and terminated as described earlier.
as §2

[4] = In vivo pharmacokinetic study of DCCTX and Gom A in rats; conditions: rat
Procedure: Rats were randomly divided into five groups (groups 1−5, n = 6), respectively. To determine the short- and long-term effect of single-dose Gom A pretreatment on CYP3A metabolism of CTX, Gom A and CTX were administered to rats with different time intervals in groups 2−5. In brief, rats in group 1 (CTX alone group) were i.g. administered with saline (10 mL/kg, vehicle control), and rats in groups 2−5 were given Gom A (i.g.) at the dose of 20.8 mg/kg (50 μmol/kg). Rats in group 1 were intravenously (i.v.) administered with CTX (300 mg/kg) 0.5 h after saline administration. In groups 2–5, rats were given CTX (i.v.) 0.5, 6, 24 and 72 h after Gom A pretreatment, respectively. Mesna was injected (420 mg/kg, i.v.) 1 hour after CTX administration in all groups to prevent bladder injury in accordance with clinical practice.
Blood samples were collected from the postocular vein at 0.083, 0.25, 0.5, 1, 2, 3, 4, 6, 8, 12 and 24 h after CTX injection. Samples were transferred to heparin tubes and centrifuged at 5000 rpm for 15 min. Plasma was obtained and stored at −20 °C until required for further analysis.
UHPLC-MS/MS method (I): 6OH-Tes concentrations were analyzed according to the previous reports with slight modifications (Supplementary Figure S3). The terminated sample were centrifuged at 14,000 rpm for 10 min, 10 μL of each supernatant was injected into the UHPLC-MS/MS system for analysis. In general, an Agilent Elipse Plus 2.1 × 50 mm column packed with 1.8 µm C18 was applied. The column temperature was set as 30 °C at a flow rate of 0.3 mL/min. The mobile phase was consisted of aqueous 1% formic acid with the addition of 10 mM ammonium acetate solution (A) and methanol (B) with the gradient elution program set as follow: 5–50–80% B from 0–1–4 min. The ion transitions were m/z 305.0→269.0 for 6OH-Tes and m/z 181.0→111.0 for phenacetin (IS-I). UHPLC-MS method (II): DCCTX concentrations were determined using our previously developed UHPLC-MS/MS method (Supplementary Figure S4). For pharmacokinetic study, plasma samples were diluted 30-fold with plasma from drug-free rats. After vortexing for 2 min, 100 μL of each diluted sample was mixed with 400 μL acetonitrile (containing 6 ng/mL TNZ (IS-II), vortexed, and centrifuged at 14,000 rpm for 10 min. 100 μL supernatant of each sample was mixed with 400 μL aqueous solution containing 10% acetonitrile followed by a rough centrifugation. For HLMs inhibition study, samples were vortexed for 1 min after reaction termination, and the mixture was then centrifuged at 14,000 rpm for 10 min. After centrifugation, the obtained supernatant (5 μL) was injected into the UHPLC-MS/MS system, using methanol/10 mM ammonium acetate aqueous solution as the mobile phase at a flow rate of 0.25 mL/min. The ion transitions were set as m/z 199.2→78 for DCCTX and m/z 248.1→121.1 for TNZ (IS-II). UHPLC-MS/MS method (III): Gom A concentrations were determined using slightly modified LC/MS method which developed by our laboratory. Briefly, a 100 µL plasma sample was transferred to a 10 mL centrifuge tube with addition of 20 µL IS solution and 20 µL water/acetonitrile (90:10, v/v), vortexed for 30 s and then extracted using 3 mL methyl tertiary butyl ether. After extraction, the sample was centrifuged at 5000 rpm for 10 min. The organic layer was quantitatively transferred to a 5 mL glass tube and evaporated to dryness at 35 °C. Then the dried extract was reconstituted in 100 µL solvent (water–acetonitrile, 20:80, v/v) followed by injection of 10 µL aliquot into LC-MS/MS system. Separation was performed on a Zorbax SB-C18 reserved-phase column (100 mm × 2.1 mm i.d., 3.5 µm) with the mobile phase consisting of acetonitrile, methanol and water −0.1% formic acid (72:18:10, v/v/v) at a flow rate of 0.3 mL/min. The ion transitions were set as m/z 399→329 for Gom A and m/z 387.0→145.0 for bifendate (IS-III). […]

[5] = Group 4: Gom A 20.8 mg/kg i.g. 24 h before CTX
[6] = Group 5: Gom A 20.8 mg/kg i.g. 72 h before CTX

Gomisin A [Gom A]
IC50 (CYP3A [1]; preincubated with NADPH and HLMs for 30 min): 420 nM
IC50 (CYP3A [1]; without preincubation): 760 nM
Ki (CYP3A [2]): 350 nM
Ki (CYP3A [3]): 1010 nM
observed maximal blood concentration ([4]; Group 2, Gom A 20.8 mg/kg (50 µmol/kg) i.g.): approximately 16 µM
AUC0–8h of DCCTX, % of group 1 (CTX alone group) ([4]; Group 3: Gom A 20.8 mg/kg i.g. 6 h before CTX): 36%
AUC0–8h of DCCTX, fold increase vs CTX alone [4, 5]: 2.0 fold
Cmax of DCCTX, fold increase vs CTX alone [4, 5]: 1.9 fold
AUC0–8h of DCCTX, fold increase vs CTX alone [4, 6]: 2.4 fold
Cmax of DCCTX, fold increase vs CTX alone [4, 6]: 2.3 fold
